{
  "source": "patent US20230041197A1",
  "about": "“TREATMENT OF A DISEASE OF THE GASTROINTESTINAL TRACT WITH AN IMMUNOMODULATOR” (Progenity, Inc., priority 2018, published 2023)",
  "settings": "mouse, in vivo",
  "note": "Counter-ions that a name gives are not always drawn.",
  "data": [
    {"smiles": "C[C@@H]1CCN(C(=O)CC#N)C[C@@H]1N(C)c1ncnc2[nH]ccc12", "note": "[tofacitinib citrate]", "values": [
      {"measurement": "blood exposure", "result": "limited"}
    ]}
  ]
}
